The results in this text go back to US11938115B2, “Benzoselenophene-based compound, pharmaceutical composition containing same, and antibody-drug conjugate” (priority 2020, dated 2024).

The subject of assay [1] is BT474 tumor spheroid. The assay can be described thus: Inhibition of BT474 three-dimensional tumor spheroid. It is filed as cell-based. To be noted: 0.02 nM to 100 nM, observed after 2 weeks.
Assay [2] relates to NCI-N87 xenograft. Briefly: Anticancer effect in NCI-N87 xenograft animal model. The class given is in vivo, nude mice. To be noted: trastuzumab 5 mg/kg twice per week, intravenously. As for the experimental part: After the NCI-N87 cell line in which the antigen of trastuzumab was expressed was xenografted into nude mice, each of trastuzumab and trastuzumab-glucuronide-Compound 2 [ADC (DS-24)] were administered intravenously, followed by observation on anticancer activity. Here, trastuzumab was administered at 5 mg/kg twice per week, and ADC (DS-24) was administered once at a dose of 1 mg/kg and 5 mg/kg.

Turning to trastuzumab, the half-maximal inhibitory concentration (IC50) in assay [1] was found to be 0.0182 µM. Further, the tumor formation inhibition entry in assay [2] is “a certain degree of tumor formation inhibition, which was not significant”.

As a reminder, the IC50 is the concentration needed to halve the response being measured. Lower therefore signals greater potency.
